Reference: patent US6407227B1, “Process for the crystallization of lactitol” (Xyrofin Oy, priority 1997, dated 2002)

Assay: Linear curve fittings of the solubility points and stability areas from intersections of solubility curves
Excerpt: The solubility data of Table 2 was combined with some earlier solubility measurement data. The curve fittings of the solubility points were made as linear fittings, when % by weight is used as a concentration unit. […] The fittings were made with the aid of the spread sheet program Excel 5.0^R. The solubility equations of the different hydrate forms are shown in Equations (I) to (IV): [formula]
The fitting of the trihydrate cannot be considered absolutely exact because only three measurement points were used for fitting: one exact point, one uncertain point and one calculatory point.
The solubility points and the curve fittings are shown in a graph in FIG. 1. […] From the intersections of solubility curves it is possible to conclude the stability areas of the different lactitol forms.

Substance: anhydrous lactitol
- stability area (temperature) (in water, from the intersections of solubility curves): > 69 °C
- solubility line s as function of temperature t (linear fitting) (t in ° C., s = weight of lactitol/(weight of lactitol+weight of water)×100%, between 100 and 0 ° C.): 59.6+0.3003t
